{"source": "patent US20160136295A1", "about": "“BIOMARKERS FOR TREATMENT WITH ANTI-TUBULIN CHEMOTHERAPEUTIC COMPOUNDS” (GENENTECH, INC., priority 2012, published 2016)", "format_in_all_cases": "biochemical, human", "key": {"Mcl-1 T163": {"tested_on": "Mcl-1 T163", "experiment": "In vitro kinase reactions: percent phosphorylation of full-length recombinant Mcl-1 at T163", "conditions": "single kinase reactions", "protocol": "(§1) To determine the suitability of residues in Mcl-1 as kinase substrates, 10 μM of Mcl-1 was incubated with selected kinase at enzyme concentrations between 25 and 100 nM. For these reactions the Mcl-1 was dialyzed into 20 mM Phosphate, 50 mM Tris pH 7.5 150 mM NaCl, 5 mM DTT and 0.5% CHAPS. The protein solution was further supplemented with MgCl2 to 10 mM and ATP to 1 mM prior to addition of kinase. Purified recombinant kinases were purchased from Invitrogen Co. (Carlsbad, Calif.).\n(§2) 10 μl of each of the Mcl-1 kinase reactions (100 pmol) were loaded onto a 4-12% Bis-Tris gel for separation by SDS-PAGE after reduction. Mcl-1 bands were excised from the gel, dehydrated (50% acetonitrile in 50 mM ammonium bicarbonate then 100% acetonitrile washes), and incubated with 0.2 μg trypsin overnight at 37° C. Peptides were eluted from the gel using 50% acetonitrile/1% formic acid, dried in a SpeedVac® (Thermo Fisher Savant), reconstituted in 0.1% formic acid containing custom Mcl-1 isotopically labeled synthetic peptides representing tryptic peptides 105-136 and 137-176 (Cell Signaling Technologies, Danvers, Mass.), as follows:\n(§3) Samples were injected in duplicate via autosampler onto a nanoAcquity® UPLC (Waters, Milford, Mass.) and analyzed on-line via nanospray ionization into an LTQ-Orbitrap® mass spectrometer at a concentration of 300 fmol synthetic peptide mix per injection. Areas were integrated for the isotopic and kinase phosphorylated peptides, and compared to their non-phosphorylated peptide counterparts to obtain percent phosphorylation values. For phosphorylation analysis of T92, no synthetic peptide was available so peak areas of the phosphorylated peptide covering residues 76-95 was divided by the total occurrence of peptide 76-95 in both phosphorylated and non-phosphorylated forms."}, "Mcl-1 T92": {"tested_on": "Mcl-1 T92", "experiment": "In vitro kinase reactions: percent phosphorylation of full-length recombinant Mcl-1 at T92", "conditions": "single kinase reactions, peak areas of 0 and 1P, triple charged state", "protocol": "as §1, §2, §3"}, "Mcl-1 S159/T163": {"tested_on": "Mcl-1 S159/T163", "experiment": "In vitro kinase reactions: percent phosphorylation of full-length recombinant Mcl-1 at S159+T163", "conditions": "for Percent phosphorylation S159/T163, AVE: average; for Percent phosphorylation S159/T163, INJ1: sample injection 1; for Percent phosphorylation S159/T163, INJ2: sample injection 2", "protocol": "as §1, §2, §3"}, "Mcl-1 S121": {"tested_on": "Mcl-1 S121", "experiment": "In vitro kinase reactions: percent phosphorylation of full-length recombinant Mcl-1 at S121", "conditions": "for Percent phosphorylation S121, AVE: average of INJ1 and INJ2; for Percent phosphorylation S121, INJ1: sample injection 1; for Percent phosphorylation S121, INJ2: sample injection 2", "protocol": "as §1, §2, §3"}, "[1]": {"conditions": "% phos on S159+T163, CDK1 + kinase panel reactions"}, "[2]": {"conditions": "% phos on S159+T163, single kinase reactions"}}}
{"substance": "CDK1: purified recombinant kinase purchased from Invitrogen", "values": [{"measurement": "Percent phosphorylation T163, AVE", "setting": "Mcl-1 T163; average of INJ1 and INJ2", "value": 28.93, "unit": "%"}, {"measurement": "Percent phosphorylation T163, INJ1", "setting": "Mcl-1 T163; sample injection 1", "value": 29.31, "unit": "%"}, {"measurement": "Percent phosphorylation T163, INJ2", "setting": "Mcl-1 T163; sample injection 2", "value": 28.55, "unit": "%"}, {"measurement": "Percent phosphorylation T92, AVE", "setting": "Mcl-1 T92; average", "value": 73.15, "unit": "%"}, {"measurement": "Percent phosphorylation T92, INJ1", "setting": "Mcl-1 T92; sample injection 1", "value": 74.33, "unit": "%"}, {"measurement": "Percent phosphorylation T92, INJ2", "setting": "Mcl-1 T92; sample injection 2", "value": 71.97, "unit": "%"}, {"measurement": "Percent phosphorylation S159/T163, AVE", "setting": "Mcl-1 S159/T163; [1]", "value": 0.10, "unit": "%"}, {"measurement": "Percent phosphorylation S159/T163, INJ1", "setting": "Mcl-1 S159/T163; [1]", "value": 0.00, "unit": "%"}, {"measurement": "Percent phosphorylation S159/T163, INJ2", "setting": "Mcl-1 S159/T163; [1]", "value": 0.20, "unit": "%"}, {"measurement": "Percent phosphorylation S159/T163, AVE", "setting": "Mcl-1 S159/T163; [2]", "value": 0.15, "unit": "%"}, {"measurement": "Percent phosphorylation S159/T163, INJ1", "setting": "Mcl-1 S159/T163; [2]", "value": 0.00, "unit": "%"}, {"measurement": "Percent phosphorylation S159/T163, INJ2", "setting": "Mcl-1 S159/T163; [2]", "value": 0.29, "unit": "%"}, {"measurement": "Percent phosphorylation S121, AVE", "setting": "Mcl-1 S121; CDK1 + kinase panel reactions", "value": 1.48, "unit": "%"}, {"measurement": "Percent phosphorylation S121, INJ1", "setting": "Mcl-1 S121; CDK1 + kinase panel reactions", "value": 1.60, "unit": "%"}, {"measurement": "Percent phosphorylation S121, INJ2", "setting": "Mcl-1 S121; CDK1 + kinase panel reactions", "value": 1.36, "unit": "%"}, {"measurement": "Percent phosphorylation S121, AVE", "setting": "Mcl-1 S121; single kinase reactions", "value": 0.78, "unit": "%"}, {"measurement": "Percent phosphorylation S121, INJ1", "setting": "Mcl-1 S121; single kinase reactions", "value": 0.93, "unit": "%"}, {"measurement": "Percent phosphorylation S121, INJ2", "setting": "Mcl-1 S121; single kinase reactions", "value": 0.64, "unit": "%"}]}
